Laboratory results as given in patent US7572574B2, “Method of measuring neprilysin activity” (Riken, priority 2002, dated 2009).

Molecular target: T1, neprilysin (Mus musculus, UniProt Q61391)
T1 construct: endogenous in cells; host or cells: mouse fetal cerebral cortex and hippocampus primary cultured nerve cells, paraformaldehyde-fixed
T1 sequence (Q61391 1-750): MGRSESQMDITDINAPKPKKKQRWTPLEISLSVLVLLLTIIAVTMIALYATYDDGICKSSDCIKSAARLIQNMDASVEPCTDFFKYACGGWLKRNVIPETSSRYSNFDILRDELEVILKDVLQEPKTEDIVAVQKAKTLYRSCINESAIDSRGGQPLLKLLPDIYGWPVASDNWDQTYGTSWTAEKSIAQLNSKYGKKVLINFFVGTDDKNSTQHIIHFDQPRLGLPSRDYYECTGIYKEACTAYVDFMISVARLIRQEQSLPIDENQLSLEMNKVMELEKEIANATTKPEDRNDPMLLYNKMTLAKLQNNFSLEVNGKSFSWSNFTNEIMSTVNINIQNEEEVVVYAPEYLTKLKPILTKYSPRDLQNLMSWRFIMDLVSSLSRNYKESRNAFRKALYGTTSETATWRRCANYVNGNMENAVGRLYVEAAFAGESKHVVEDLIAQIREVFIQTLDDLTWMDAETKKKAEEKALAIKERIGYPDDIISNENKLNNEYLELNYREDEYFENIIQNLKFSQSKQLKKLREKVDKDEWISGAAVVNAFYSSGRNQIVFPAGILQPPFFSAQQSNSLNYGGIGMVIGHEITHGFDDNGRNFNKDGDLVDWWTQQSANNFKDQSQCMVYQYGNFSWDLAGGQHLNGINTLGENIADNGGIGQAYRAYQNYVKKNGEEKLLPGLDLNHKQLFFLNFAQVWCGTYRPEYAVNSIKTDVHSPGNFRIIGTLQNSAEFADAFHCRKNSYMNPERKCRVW
Test: Neprilysin activity staining in mouse primary cultured nerve cells (fluorescent substrate, confocal microscopy)
Assay type: cell-based
Conditions: final concentration 10 μM in substrate solution; fixed mouse primary nerve cells

neprilysin enzyme activity on adding the inhibitor to the substrate solution: almost completely disappeared
SMILES: O=C(O)CNC(=O)C(CS)Cc1ccccc1 (stereo not shown) [thiorphan]
